This note sets out measurements from patent publication US3992528A, “Anti-viral substance containing peptide, fatty acid and carbohydrate moieties” (Research Corporation, priority 1975, dated 1976).

As to phytostreptin, the “solubility in methyl ethyl ketone” value (methyl ethyl ketone) is given as “not soluble”. Moreover, the solubility in water result (water) was “soluble”.
